pIC50: −log10 of the molar value. Where two headings read alike, the source gives them in different places.
Legend:
[1] = target: pig alpha-2-delta receptor 1 (A2DR1) (Sus scrofa, UniProt A0A287BIN3); assay: [3H]Gabapentin scintillant proximity A2DR1 binding assay (A2DR1 SPA, Biological Method 5)
Description: (§1) Recombinant HEK 293 cells expressing pig A2DR1 and A2DR2 subunits were grown under normal cell culture conditions (RPMI-1640 media with 10% FBS, 200 μg G418, and 1% penicillin/streptomycin 1t 37° C. with 5% CO2) until reaching confluency in T-75 flasks, at which time they were harvested. The harvested cells were suspended in ice-cold 5 mM Tris/5 mM ethylenediaminetetraacetic acid (“EDTA”) buffer, pH 7.4 (“TE buffer”) containing phenylmethylsulfonyl fluoride (“PMSF”) (0.1 mM) and Roche Complete Protease Inhibitor Cocktail, and allowed to sit on ice for 30 minutes. The cells were broken by sonication using 20 bursts, 40-50 cycles, and then centrifuged at 3000×g for 10 minutes. The resulting supernatant was transferred to a new tube and centrifuged at 50,000×g for 30 minutes. The resulting pellet was resuspended in 10 mM HEPES buffer, pH 7.4, homogenized, and stored at—80° C. The A2DR1 or A2DR2 membrane protein concentration was determined by the Pierce BCA method using bovine serum albumin (“BSA”) as the standard.
(§2) The [^3H]gabapentin SPA binding assay was performed in Costar 3632 96-well, clear bottom assay plates using Wheatgerm agglutinin beads (Amersham Pharmacia Biotech). Pig A2DR1 or A2DR2 membranes (10-20 μg protein per well) prepared above in Step (1) and SPA beads (0.5 mg per well) were mixed with 30 nM [^3H]gabapentin (52 Ci/mmol; Amersham Pharmacia Biotech) in 10 mM HEPES/10 mM MgSO4 assay buffer, pH 7.4 using KOH. The final well volume was 200 μL and non-specific binding was determined in the presence of 10 μM unlabeled pregabalin. The final mixture containing A2DR1 or A2DR2 membrane protein incubated with SPA beads, test compounds, and [^3H]gabapentin was incubated at room temperature for 15-24 hours, and the plates were then counted on a Wallace Trilux 1450 Microbeta scintillation counter. Step (3): Determination of IC50 values
(§3) Curve fitting and IC50 values were calculated using a four-parameter, non-linear regression equation from GraphPad Prism 3.0 software, while Ki values were determined using the equation of Chang and Prussoff.

Amino acid sequences for entries named in this document (tags omitted). Residues count along the entry.
UniProt A0A287BIN3, 1-1109: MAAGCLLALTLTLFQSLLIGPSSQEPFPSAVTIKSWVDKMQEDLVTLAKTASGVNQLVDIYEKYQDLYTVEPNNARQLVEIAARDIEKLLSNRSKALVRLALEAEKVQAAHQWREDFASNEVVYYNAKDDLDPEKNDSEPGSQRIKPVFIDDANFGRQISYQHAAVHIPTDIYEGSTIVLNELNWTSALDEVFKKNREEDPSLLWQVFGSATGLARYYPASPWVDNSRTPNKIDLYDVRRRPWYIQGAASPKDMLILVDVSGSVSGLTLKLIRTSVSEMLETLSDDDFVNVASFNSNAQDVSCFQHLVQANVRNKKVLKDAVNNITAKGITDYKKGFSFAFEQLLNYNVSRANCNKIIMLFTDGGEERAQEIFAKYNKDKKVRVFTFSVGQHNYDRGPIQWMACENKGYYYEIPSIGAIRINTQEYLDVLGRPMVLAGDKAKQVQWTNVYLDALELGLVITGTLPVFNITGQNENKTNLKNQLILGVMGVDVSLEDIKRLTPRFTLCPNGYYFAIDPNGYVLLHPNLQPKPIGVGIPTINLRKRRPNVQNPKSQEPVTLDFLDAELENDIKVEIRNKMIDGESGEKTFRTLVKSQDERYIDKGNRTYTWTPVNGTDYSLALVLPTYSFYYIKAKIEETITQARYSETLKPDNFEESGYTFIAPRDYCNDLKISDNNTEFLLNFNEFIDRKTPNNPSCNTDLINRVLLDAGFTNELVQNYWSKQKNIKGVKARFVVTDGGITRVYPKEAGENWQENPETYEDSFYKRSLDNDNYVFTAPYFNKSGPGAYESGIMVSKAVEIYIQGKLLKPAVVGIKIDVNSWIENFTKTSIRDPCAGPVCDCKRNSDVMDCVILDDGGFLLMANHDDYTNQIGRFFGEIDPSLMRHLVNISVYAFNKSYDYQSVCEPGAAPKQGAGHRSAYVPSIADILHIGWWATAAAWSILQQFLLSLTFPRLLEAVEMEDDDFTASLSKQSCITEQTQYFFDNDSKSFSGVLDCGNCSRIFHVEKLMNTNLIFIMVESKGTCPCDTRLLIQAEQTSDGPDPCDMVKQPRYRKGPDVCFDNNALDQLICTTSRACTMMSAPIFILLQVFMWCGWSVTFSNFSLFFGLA
UniProt P54289, 25-1103 limits assumed: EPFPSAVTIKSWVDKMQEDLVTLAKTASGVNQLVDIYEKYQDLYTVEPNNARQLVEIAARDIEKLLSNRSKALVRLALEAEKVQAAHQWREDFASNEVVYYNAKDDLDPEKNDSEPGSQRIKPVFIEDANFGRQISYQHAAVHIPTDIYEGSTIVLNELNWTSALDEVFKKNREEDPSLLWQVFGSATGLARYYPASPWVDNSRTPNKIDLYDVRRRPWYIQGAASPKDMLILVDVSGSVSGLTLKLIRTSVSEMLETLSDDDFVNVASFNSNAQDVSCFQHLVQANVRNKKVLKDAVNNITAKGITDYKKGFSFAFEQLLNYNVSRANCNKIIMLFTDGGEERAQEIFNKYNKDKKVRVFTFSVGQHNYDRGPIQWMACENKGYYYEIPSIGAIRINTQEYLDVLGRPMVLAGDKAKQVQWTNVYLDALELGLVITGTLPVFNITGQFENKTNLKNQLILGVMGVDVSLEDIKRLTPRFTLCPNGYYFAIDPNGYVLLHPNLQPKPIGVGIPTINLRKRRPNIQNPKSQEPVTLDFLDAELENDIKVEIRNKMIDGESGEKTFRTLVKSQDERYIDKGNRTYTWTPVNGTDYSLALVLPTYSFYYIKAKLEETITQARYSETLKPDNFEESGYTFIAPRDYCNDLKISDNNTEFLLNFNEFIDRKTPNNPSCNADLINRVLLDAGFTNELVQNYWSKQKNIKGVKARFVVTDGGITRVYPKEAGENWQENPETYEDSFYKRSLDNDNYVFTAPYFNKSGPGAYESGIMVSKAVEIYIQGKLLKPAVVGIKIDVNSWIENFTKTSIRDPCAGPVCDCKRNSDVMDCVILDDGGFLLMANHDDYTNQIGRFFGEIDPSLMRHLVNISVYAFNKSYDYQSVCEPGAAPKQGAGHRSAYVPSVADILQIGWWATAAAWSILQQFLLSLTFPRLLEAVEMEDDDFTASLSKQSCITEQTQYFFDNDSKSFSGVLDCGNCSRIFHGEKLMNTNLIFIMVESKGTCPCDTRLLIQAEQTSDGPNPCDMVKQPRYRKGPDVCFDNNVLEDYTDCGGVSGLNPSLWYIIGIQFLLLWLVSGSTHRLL
UniProt A0A8W4FF87, 1-1142: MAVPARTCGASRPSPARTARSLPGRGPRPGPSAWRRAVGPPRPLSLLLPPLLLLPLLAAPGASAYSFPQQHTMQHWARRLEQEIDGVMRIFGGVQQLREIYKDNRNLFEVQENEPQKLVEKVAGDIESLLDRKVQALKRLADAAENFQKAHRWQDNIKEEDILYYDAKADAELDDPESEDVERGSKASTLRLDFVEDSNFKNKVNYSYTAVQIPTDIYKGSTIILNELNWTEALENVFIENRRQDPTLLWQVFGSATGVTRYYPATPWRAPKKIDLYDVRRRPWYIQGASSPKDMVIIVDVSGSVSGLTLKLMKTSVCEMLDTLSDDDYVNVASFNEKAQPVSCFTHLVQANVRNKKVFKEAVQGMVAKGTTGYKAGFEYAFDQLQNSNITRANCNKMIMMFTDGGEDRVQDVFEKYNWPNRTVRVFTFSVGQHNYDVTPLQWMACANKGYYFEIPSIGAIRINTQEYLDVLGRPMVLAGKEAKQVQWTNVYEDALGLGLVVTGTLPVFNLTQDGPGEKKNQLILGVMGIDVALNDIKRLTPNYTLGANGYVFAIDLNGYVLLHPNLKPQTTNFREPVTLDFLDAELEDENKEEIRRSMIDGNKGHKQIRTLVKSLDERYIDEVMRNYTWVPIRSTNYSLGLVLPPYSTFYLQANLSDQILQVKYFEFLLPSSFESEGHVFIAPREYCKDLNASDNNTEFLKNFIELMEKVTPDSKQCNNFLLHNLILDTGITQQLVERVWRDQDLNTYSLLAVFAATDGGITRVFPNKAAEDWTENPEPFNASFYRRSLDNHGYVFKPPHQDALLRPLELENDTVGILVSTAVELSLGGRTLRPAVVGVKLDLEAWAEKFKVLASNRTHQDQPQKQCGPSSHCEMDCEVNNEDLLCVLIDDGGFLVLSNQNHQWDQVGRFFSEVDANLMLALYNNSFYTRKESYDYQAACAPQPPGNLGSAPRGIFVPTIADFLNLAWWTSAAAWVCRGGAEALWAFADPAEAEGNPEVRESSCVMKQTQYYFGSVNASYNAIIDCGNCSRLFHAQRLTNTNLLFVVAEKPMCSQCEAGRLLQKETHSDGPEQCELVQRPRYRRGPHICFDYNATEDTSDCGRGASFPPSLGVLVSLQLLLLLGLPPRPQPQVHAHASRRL
UniProt Q9NY47, 19-1150 limits assumed: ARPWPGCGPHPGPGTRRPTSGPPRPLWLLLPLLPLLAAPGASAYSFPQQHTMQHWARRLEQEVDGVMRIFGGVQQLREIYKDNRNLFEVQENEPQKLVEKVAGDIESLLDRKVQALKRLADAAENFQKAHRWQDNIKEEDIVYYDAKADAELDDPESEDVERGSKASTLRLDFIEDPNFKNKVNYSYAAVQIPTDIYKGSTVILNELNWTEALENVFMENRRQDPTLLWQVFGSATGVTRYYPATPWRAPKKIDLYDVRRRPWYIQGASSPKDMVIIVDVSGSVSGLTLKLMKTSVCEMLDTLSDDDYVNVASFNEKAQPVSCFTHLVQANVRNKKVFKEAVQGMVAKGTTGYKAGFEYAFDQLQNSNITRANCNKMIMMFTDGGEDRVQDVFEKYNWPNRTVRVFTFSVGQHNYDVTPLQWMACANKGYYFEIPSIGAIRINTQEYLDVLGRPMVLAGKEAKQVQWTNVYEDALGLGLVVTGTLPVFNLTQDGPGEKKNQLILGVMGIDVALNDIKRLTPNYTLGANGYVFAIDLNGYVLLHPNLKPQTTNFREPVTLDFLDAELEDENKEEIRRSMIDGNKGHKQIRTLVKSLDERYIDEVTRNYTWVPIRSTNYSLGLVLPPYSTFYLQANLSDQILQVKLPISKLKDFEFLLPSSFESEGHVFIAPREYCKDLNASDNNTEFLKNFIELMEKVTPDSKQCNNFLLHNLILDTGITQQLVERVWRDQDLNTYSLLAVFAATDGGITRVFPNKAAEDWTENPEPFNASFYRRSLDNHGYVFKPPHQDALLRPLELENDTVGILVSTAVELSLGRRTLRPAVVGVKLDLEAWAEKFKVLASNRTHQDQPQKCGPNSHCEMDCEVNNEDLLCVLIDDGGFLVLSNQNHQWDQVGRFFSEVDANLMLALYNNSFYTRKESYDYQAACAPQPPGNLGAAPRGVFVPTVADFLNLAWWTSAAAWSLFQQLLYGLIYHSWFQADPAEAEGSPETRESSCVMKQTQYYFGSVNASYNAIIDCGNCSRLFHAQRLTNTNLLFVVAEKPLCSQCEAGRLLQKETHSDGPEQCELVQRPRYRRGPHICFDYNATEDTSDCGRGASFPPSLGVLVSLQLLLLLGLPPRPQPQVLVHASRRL
UniProt O77773, entry or part of it limits assumed: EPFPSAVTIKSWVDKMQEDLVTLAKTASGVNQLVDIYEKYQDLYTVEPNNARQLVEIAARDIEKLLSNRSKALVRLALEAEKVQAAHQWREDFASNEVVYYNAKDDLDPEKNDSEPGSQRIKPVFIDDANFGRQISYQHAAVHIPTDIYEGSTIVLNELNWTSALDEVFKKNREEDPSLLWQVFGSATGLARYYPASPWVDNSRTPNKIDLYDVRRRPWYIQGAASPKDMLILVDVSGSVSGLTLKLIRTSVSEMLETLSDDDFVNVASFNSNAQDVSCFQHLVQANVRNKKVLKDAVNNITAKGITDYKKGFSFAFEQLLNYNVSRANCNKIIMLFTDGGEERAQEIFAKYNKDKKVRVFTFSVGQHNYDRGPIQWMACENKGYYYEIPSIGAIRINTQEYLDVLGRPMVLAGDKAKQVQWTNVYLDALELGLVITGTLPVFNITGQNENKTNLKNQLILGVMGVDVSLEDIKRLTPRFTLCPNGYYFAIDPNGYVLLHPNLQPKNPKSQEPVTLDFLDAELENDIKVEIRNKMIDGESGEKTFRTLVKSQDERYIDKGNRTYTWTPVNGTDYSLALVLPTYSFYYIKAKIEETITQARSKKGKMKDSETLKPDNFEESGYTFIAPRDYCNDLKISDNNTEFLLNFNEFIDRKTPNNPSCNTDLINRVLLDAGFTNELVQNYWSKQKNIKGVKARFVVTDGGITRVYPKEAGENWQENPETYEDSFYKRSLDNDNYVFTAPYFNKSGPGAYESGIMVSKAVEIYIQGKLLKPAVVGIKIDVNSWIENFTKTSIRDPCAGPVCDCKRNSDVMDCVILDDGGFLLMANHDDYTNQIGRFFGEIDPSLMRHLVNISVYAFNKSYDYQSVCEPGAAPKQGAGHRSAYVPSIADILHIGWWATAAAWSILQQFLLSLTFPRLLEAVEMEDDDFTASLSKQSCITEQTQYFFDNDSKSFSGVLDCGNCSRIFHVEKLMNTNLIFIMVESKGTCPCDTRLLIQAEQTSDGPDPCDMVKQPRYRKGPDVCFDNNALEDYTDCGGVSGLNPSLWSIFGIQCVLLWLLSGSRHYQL

[2] = target: alpha-2-delta receptor 1 (A2DR1) (Homo sapiens, UniProt P54289); assay: [3H]Gabapentin A2DR1 binding assay (filter, Biological Method 4); conditions: read-out: A2DR1 IC50, displacement of [3H]-gabapentin
Excerpt: (§4) HEK 293 recombinant cells expressing A2DR1 or A2DR2 protein are harvested and washed in phosphate buffered saline (“PBS”). The cells are centrifuged and resuspended in tris(hydroxymethyl)aminomethane-ethylenediaminetetraacetic acid (“Tris-EDTA” or “TE”) buffer containing Roche Complete Protease Inhibitor Cocktail. The cells are homogenized, centrifuged at 3000×g, and the supernatant centrifuged again at 50,000×g. The resulting pellet is resuspended and homogenized in TE. Following determination of A2DR1 or A2DR2 protein concentration, aliquots are stored at −70° C. until the day of testing (membrane preparation may be used for at least 6 months).
(§5) In one version, the binding assay is set up in a 96-well format using deep-well polypropylene plates. […] Non-specific binding for each plate is determined by the addition of 10 μM of pregabalin instead of test compound in a few of the 96 wells. […] The mats are placed into plastic pouches, scintillation cocktail is added, the pouches are sealed, and radioactivity for each sample is counted.
(§6) Specific binding values for each concentration are transformed and then analyzed by a 4-parameter nonlinear regression equation provided by Prism graphics software by Graph Pad to determine IC50 values by conventional means.

[3] = test system: MIA Rat (monosodium iodoacetate-induced osteoarthritis, right knee joint); assay: Monosodium iodoacetate-induced osteoarthritis in rat model of joint cartilage damage (MIA Rat); conditions: 2-week MIA study, Day 14, rat; for % I @ 10 mg/kg/day (%) (± SEM): inhibition of loss of hind limb joint function in MIA at Day 14: 10 mg/kg/day via osmotic pump, tested form: HCl
Excerpt: One end result of the induction of osteoarthritis in this model, as determined by histologic analysis, is the development of an osteoarthritic condition within the affected joint, as characterized by the loss of Toluidine blue staining and formation of osteophytes. Associated with the histologic changes is a concentration-dependent degradation of joint cartilage, as evidenced by affects on hind-paw weight distribution of the limb containing the affected joint, the presence of increased amounts of proteoglycan or hydroxyproline in the joint upon biochemical analysis, or histopathological analysis of the osteoarthritic lesions.
The invention compounds typically are not effective for relieving joint pain when administered in an acute model, such as the instant MIA Rat model, which has a duration of just 14 or 28 days.
Generally, In the MIA Rat model on Day 0, the hind-paw weight differential between the right arthritic joint and the left healthy joint of male Wistar rats (150 g) are determined with an incapacitance tester, model 2KG (Linton Instrumentation, Norfolk, United Kingdom). […]
Administration of an invention compound in this model is optionally by oral administration or by intravenous administration via an osmotic pump. After 7 and 14 days for a two week study, or 7, 14, and 28 days for a four week study, the hind-paw weight distribution is again determined. […] Percent inhibition of a change in hind paw joint function is calculated as the percent change in hind-paw weight distribution for treated animals versus control animals. For example, for a two week study, [formula] wherein: ΔWC is the hind-paw weight differential between the healthy left limb and the arthritic limb of the control animal administered vehicle alone, as measured on Day 14; and • ΔWG is the hind-paw weight differential between the healthy left limb and the arthritic limb of the animal administered an invention compound as measured on Day 14. […]

[4] = target: pig alpha-2-delta receptor 2 (A2DR2) (UniProt A0A8W4FF87); assay: [3H]Gabapentin scintillant proximity A2DR2 binding assay (A2DR2 SPA, Biological Method 5)
Description: as §1, §2, §3

[5] = target: alpha-2-delta receptor 2 (A2DR2) (Homo sapiens, UniProt Q9NY47); assay: [3H]Gabapentin A2DR2 binding assay (filter, Biological Method 4); conditions: read-out: A2DR2 IC50, displacement of [3H]-gabapentin
Excerpt: as §4, §5, §6

[6] = target: alpha-2-delta receptors, membrane from pig cortex (Sus scrofa, UniProt O77773); assay: [3H]Gabapentin A2DR binding assay (GABAPAA or GABAP, Biological Method 6)
Description: In one version, the binding assay is set up in a 96-well format using deep-well polypropylene plates. In a total volume of 500 μL, the following additions are made: 250 μL buffer [[…] N-2-hydroxyethylpiperazine-N′-2-ethanesulfonic acid (“HEPES”), pH 7.4], 25 μL [3H]gabapentin (10 nM final concentration), 200 μL thawed tissue membrane preparation from Step (1) (˜40 μg protein), and 25 μL of test compound at 7 test dilutions (for example, 0.001, 0.01, 0.03, 0.1, 0.3, 1.0, and 10 μM concentrations). Non-specific binding for each plate is determined by the addition of 10 μM of pregabalin instead of test compound in a few of the 96 wells. Following incubation for 45 minutes at 21° C., the contents of the wells are filtered under vacuum onto glass filter/B (“GF/B”) filter mats and then washed 4×1 mL with chilled 50 mM tris(hydroxymethyl)aminomethane (“Tris”) HCl, pH 6.9. The mats are placed into plastic pouches, scintillation cocktail is added, the pouches are sealed, and radioactivity for each sample is counted.
as §6
The GABAPAA assay, also known as the GABAP assay, is carried out according to the method of Biological Method 4 except that the source of alpha-2-delta receptors is membrane from pig cortex.

[7] = read-out: A2DR1 SPA IC50, displacement of [3H]-gabapentin, tested form: HCl
[8] = read-out: A2DR2 SPA IC50, displacement of [3H]-gabapentin, tested form: HCl
[9] = read-out: GABAPAA IC50, displacement of [3H]-gabapentin, tested form: HCl
[10] = read-out: A2DR1 SPA IC50, displacement of [3H]-gabapentin, tested form: hydrochloride
[11] = read-out: A2DR2 SPA IC50, displacement of [3H]-gabapentin, tested form: hydrochloride

SMILES	pIC50 [1, 7]	% I @ 10 mg/kg/day (%) (± SEM): inhibition of loss of hind limb joint function in MIA at Day 14 [3]	pIC50 [4, 8]	pIC50 [6, 9]	pIC50 [1, 10]	pIC50 [4, 11]	other results
CCC1CCC2NC(C(=O)O)CC2C1 (stereo not drawn)	5.96	65 ± 11	5.24	≤ 5.00	–	–	pIC50 ([2]; tested form: HCl): ≤ 5.00; pIC50 ([5]; tested form: HCl): ≤ 5.00
CC1CCCC2CC(C(=O)O)NC12 (stereo not drawn)	≤ 5.00	26 ± 13	≤ 5.00	≤ 5.00	–	–	–
CN1[C@H]2CCCC[C@H]2C[C@@]1(C)C(=O)O	–	–	–	–	≤ 5.00	≤ 5.00	–
CN1[C@@H](C(=O)O)C[C@H]2CCCC[C@H]21	–	–	–	–	≤ 5.00	≤ 5.00	% I @ 30 mg/kg BID (%) (± SEM): inhibition of loss of hind limb joint function in MIA at Day 14 ([3]; 30 mg/kg BID oral, tested form: hydrochloride): 69 ± 15%
CN1C(C(=O)NS(C)(=O)=O)CC2CCCCC21 (stereo not drawn)	–	–	–	–	–	–	pIC50 [2]: ≤ 5.00; pIC50 [5]: ≤ 5.00; pIC50 ([6]; read-out: GABAPAA IC50, displacement of [3H]-gabapentin): ≤ 5.00

From patent US20050143427A1, “[B]-fused bicyclic proline derivatives and their use for treating arthritic conditions” (priority 2003, published 2005)
